# Test results taken from article PMC12022103, “Rational design of synthetic antimicrobial peptides based on the Escherichia coli ShoB toxin” (Scientific Reports, 2025).
# Sequences of proteins named here, by UniProt entry; tags and fusion partners are left off. Residues count along the entry.
# UniProt P00761, 9-231: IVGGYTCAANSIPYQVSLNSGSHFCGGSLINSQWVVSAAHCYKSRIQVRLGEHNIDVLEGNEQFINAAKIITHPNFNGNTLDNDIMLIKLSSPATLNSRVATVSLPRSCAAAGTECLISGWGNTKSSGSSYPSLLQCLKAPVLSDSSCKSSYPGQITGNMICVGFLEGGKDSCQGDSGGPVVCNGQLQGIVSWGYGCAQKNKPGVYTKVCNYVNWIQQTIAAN
# Key:
# [1] = system: E. coli ATCC 25922; assay: Minimum inhibitory concentration (MIC), broth dilution; type: cell-based, Escherichia coli; conditions: two-fold dilution in MH II broth, 5 × 10^5 CFU/mL, 18–24 h, 37 °C, OD600, triplicate, highest number reported, detection limit <0.5 and >128 µM
# Experimental: The panel of bacterial reference strains used in this work for assessment of synthetic peptide activity originated from the American Type Culture Collection (ATCC) and was obtained from the Diagnostic section at the Department of Microbiology, Oslo University Hospital. The strains used were as follows: E. coli ATCC 25922, K. pneumoniae ATCC 13883, A. baumannii ATCC 17978, S. aureus ATCC 29213, and E. faecalis ATCC 29212.
# Bacterial strains were plated on cation-adjusted Mueller-Hinton (MH II) agar plates and incubated at 37 °C overnight. The day after single colonies were picked and resuspended in sterile-filtered saline (0.9%). The OD of each bacterial suspension was adjusted to McFarland standard 0.5 using a spectrophotometer (UV-1800, Shimadzu), and the suspension further diluted 1:100 in MH II broth, corresponding to 10^6 colony forming units (CFU) per mL. […] After overnight incubation at 37 °C, colonies were counted. […]
# The peptides were serially diluted (two-fold) directly in 96-well plates (Greiner, MICROPLATE, 96 WELL, PP, U-BOTTOM, NATURAL, 650261) containing MH II broth, corresponding to concentrations in the range 256–0.5 µM. […] The 96-well plates were incubated for 18–24 h at 37 °C, after which the OD of each well was measured at 600 nm in a plate reader (Victor Nivo, Perkin-Elmer). […]
# [2] = system: E. coli; assay: Cell morphology by phase contrast microscopy; type: cell-based, Escherichia coli; conditions: 10× MIC, 5 min exposure, preliminary
# Experimental: To explore the potential correlation between general membrane destabilization and our FoR data, we conducted a brief preliminary examination of E. coli cell morphology following a pulsed exposure to our top four peptide candidates at 10× MIC. Cells were imaged by using phase contrast microscopy after 5 min of exposure. […] However, additional research using complementary techniques are necessary to conclusively characterize their killing mechanism.
# [3] = molecular target: T1, trypsin (Sus scrofa, UniProt P00761); assay: Protease stability assessment (trypsin pre-incubation, then growth inhibition of E. coli); type: in vitro ADME; conditions: 37 °C
# T1 construct: purchased Gibco 11580626
# Experimental: Trypsin solution was prepared by dissolution of Trypsin (Gibco™ Trypsin-EDTA (0.05%), phenol red, 11580626) in PBS (pH 7) to obtain a final concentration of 0.25 mg/mL. Peptides were two-fold serially diluted in trypsin solution in 96-well plates (Greiner, MICROPLATE, 96 WELL, PP, U-BOTTOM, NATURAL, 650261) and incubated for 1–6 h at 37 °C. The plates were subsequently heated at 60 °C for 15 min to terminate the enzyme reaction. Bacterial susceptibility was next assessed by adding an equal volume of E. coli ATCC 25922 inoculum to the wells and following the protocol of the above described MIC assay.
# [4] = system: E. coli ATCC 25922; assay: Frequency of resistance determination (p0 method); type: cell-based, Escherichia coli; conditions: E. coli ATCC 25922, 40 cultures, 4 × MIC, 24–48 h, colistin as reference, triplicate
# Excerpt: The method was based on the Fluctuation assay (p0 method; Luria and Delbrück) for determination of mutation rate[33],[34], and optimized for selection of mutants in liquid medium. Colistin sulfate (Thermo Scientific, 15575146) served as control in experimentation. Initially, the MIC of colistin and peptides was verified through broth dilution in 96-well plates (as detailed above). In order to account for potential phenotypic heterogeneity among colonies derived from the same frozen stock, multiple colonies of E. coli ATCC 25922 were picked and inoculated in 2 mL MHII broth overnight at 37°C with continuous shaking. The following day, aliquots of colistin and peptide solutions were prepared in MHII broth at working concentrations 20 times the MIC. […] The plates were incubated at 37 °C in a humidified box, and OD was measured at 600 nm using a microplate reader (Victor Nivo, Perkin-Elmer) after 0, 24 and 48 h of incubation. […]
# To calculate the viable bacterial counts, the overnight culture was serially diluted 10-fold in MHII, after which 5 µl of the 10^− 3 – 10^− 9 dilutions were spotted onto MHII agar plates and incubated overnight at 37 °C. CFUs were counted the following day to determine CFU/mL of the overnight culture. […] The mutation rate, or frequency of resistance, was calculated using the following formula: […]
smiles,measurement,setting,value
CC[C@@H](C)[C@@H](NC(=O)[C@@H](CC(C)C)NC(=O)[C@@H](CCC(N)=O)NC(=O)[C@@H](CC(C)C)NC(=O)[C@H](NC(=O)[C@@H](C)NC(=O)[C@@H](CCCCN)NC(=O)[C@@H](CCCCN)NC(=O)[C@@H](CCCCN)NC(=O)[C@H](CCCCN)NC(=O)[C@H](CCCCN)NC(=O)[C@@H](NC(=O)[C@H](CCCNC(=N)N)NC(=O)[C@H](CCCCN)NC(=O)[C@@H](NC(=O)[C@H](CC(C)C)NC(=O)[C@H](Cc1ccc(O)cc1)NC(=O)[C@H](CCCNC(=N)N)NC(=O)CNC(=O)[C@H](CC(=O)O)NC(=O)[C@@H](NC(=O)[C@@H](N)CCSC)[C@@H](C)O)[C@@H](C)CC)C(C)C)C(C)C)C(=O)N[C@H](CC(C)C)C(=O)N[C@H](CCCCN)C(=O)N[C@H](Cc1ccccc1)C(=O)N[C@H](CC(C)C)C(=O)O [D-1a],"MIC, E. coli",[1],16 µM
same,Membrane morphology of cells (in words),[2],indications of changes in membrane morphology
same,Fold reduction of apparent MIC after incubation with trypsin,"[3]; 0.125 mg/mL trypsin, 1–6 h, E. coli ATCC 25922",8 fold
same,Apparent MIC after incubation with trypsin,"[3]; pre-incubation with 0.125 mg/mL trypsin in PBS pH 7, 1 h or 6 h, then 60 °C 15 min, E. coli ATCC 25922 growth (OD) after 20–23 h, triplicate",2 µM
same,Frequency of resistance (FoR) (in words),[4],eliminated mutagenicity
